Measured values reported in patent US8586607B2, “Compounds for the treatment of metabolic diseases” (Syddansk Universitet, priority 2008, dated 2013).

By UniProt entry, the sequences of proteins in these tests, tags left out.
UniProt O14842, whole entry: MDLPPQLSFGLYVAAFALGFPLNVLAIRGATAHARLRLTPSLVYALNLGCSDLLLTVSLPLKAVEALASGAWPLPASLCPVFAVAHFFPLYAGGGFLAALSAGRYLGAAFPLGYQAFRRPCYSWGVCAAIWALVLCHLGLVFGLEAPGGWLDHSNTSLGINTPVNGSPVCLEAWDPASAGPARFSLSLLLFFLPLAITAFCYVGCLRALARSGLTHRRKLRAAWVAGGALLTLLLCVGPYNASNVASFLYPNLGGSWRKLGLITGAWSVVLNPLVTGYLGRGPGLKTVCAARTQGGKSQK

Target: human GPR40 (Homo sapiens, UniProt O14842)
Test: Calcium mobilization assay, agonistic activity on GPR40
Type: cell-based
Details: cells expressing human GPR40 (hGPR40-1321N1)

GPR40 agonistic activity (pEC50): 6.97
SMILES: Cc1cccc(C#Cc2ccc(CCC(=O)O)cc2)c1 [Example A7, 3-(4-(m-Tolylethynyl)phenyl)propanoic acid]
